Test results from PubChem BioAssay AID504357 (The Scripps Research Institute Molecular Screening Center, 2011).
The list shows a part of the results, in another mix than the full data. Activity calls are given as the source filed them. Rule as the data show it: active = inhibition above about 22% (passing the limit was not always enough); inactive = the rest.

Sequences of proteins named here, by UniProt entry; tags and fusion partners are left off.
UniProt P35372, whole entry, looked up: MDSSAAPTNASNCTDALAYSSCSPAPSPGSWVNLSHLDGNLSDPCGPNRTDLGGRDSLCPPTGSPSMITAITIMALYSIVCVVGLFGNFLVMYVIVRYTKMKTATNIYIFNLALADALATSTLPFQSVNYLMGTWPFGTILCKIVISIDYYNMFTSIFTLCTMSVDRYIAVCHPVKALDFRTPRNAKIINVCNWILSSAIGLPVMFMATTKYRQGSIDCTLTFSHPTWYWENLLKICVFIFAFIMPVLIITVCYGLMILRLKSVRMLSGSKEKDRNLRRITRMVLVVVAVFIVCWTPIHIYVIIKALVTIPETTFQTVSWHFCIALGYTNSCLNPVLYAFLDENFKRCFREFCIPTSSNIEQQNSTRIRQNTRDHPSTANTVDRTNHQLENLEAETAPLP
UniProt P41143, whole entry, looked up: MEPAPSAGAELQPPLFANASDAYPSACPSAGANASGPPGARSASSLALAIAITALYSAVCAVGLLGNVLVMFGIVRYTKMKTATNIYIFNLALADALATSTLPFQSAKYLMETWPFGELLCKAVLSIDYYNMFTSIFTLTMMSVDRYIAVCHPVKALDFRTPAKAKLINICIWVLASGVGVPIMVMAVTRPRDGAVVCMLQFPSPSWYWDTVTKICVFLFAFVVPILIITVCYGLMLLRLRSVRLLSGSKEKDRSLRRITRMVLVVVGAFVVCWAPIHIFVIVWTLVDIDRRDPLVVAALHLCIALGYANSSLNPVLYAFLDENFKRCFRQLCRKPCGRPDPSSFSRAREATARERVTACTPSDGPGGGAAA

What follows are molecules tested against Mu-type opioid receptor (Homo sapiens) + Delta-type opioid receptor (Homo sapiens) (UniProt P35372+P41143) (assay: OPRM1-OPRD1 heterodimer inverse agonism – cell-based, luminescence, primary screen (AID 504357;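 also: 0% = cells with DMSO and 100% = wells without cells with DMSO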)). Conditions: cell-based MOR-DOR heterodimer luminescence, at 9.3 µM, active compounds read high.

Row | SMILES | inhibition
1 | O=C(Cn1c(-c2ccccn2)nc2ccccc21)NCCN1CCOCC1 | inactive: -1.17%
2 | O=C(Cn1cnc2c(NCc3ccccc3)ncnc21)NCCCc1ccccc1 | inactive: 12.2%
3 | COc1cc(NC(=O)Cn2cnc3c(OCc4ccccc4)ncnc32)cc(OC)c1OC | inactive: 2.96%
4 | O=C(CCNC(=O)N1CCn2c1nc1ccccc12)NCc1ccc(F)cc1 | inactive: 5.43%
5 | O=C(Nc1nc2ccccc2n1CCN1CCOCC1)c1cn(-c2ccccc2)nc1-c1ccccc1 | inactive: 10.5%
6 | O=C(OC1CN2CCC1CC2)c1cccc2[nH]cnc12 (stereo not given) | inactive: 7.15%
7 | C=C(C)Cn1c(=O)c2c(nc3n2CCN3c2cccc(Cl)c2C)n(C)c1=O | inactive: 4.96%
8 | CCN(CC)C(=S)SC(NC=O)C(Cl)(Cl)Cl (stereo not given) | inactive: -6.3%
9 | C[C@H](NC(=O)N1CCn2c1nc1ccccc12)C(=O)NC1CC1 | inactive: 5.86%
10 | Cc1ccc(Cn2nnnc2CN2CCC(n3nnc4cc(C)ccc43)CC2)cc1 | inactive: -29.5%
11 | Cc1cccc(CSc2nc3ccncc3n2CC(=O)Nc2cc(C)cc(C)c2)c1 | inactive: 2.33%
12 | CC1CCN(C(=O)Cn2cnc3c2c(=O)n(C)c(=O)n3C)c2ccccc2S1 (stereo not given) | inactive: 6.97%
13 | Cn1c(=O)c2c(nc(CN3CCC(Cc4ccccc4)CC3)n2CCN2CCOCC2)n(C)c1=O | inactive: 0.76%
14 | Cc1ccc(-c2csc(NCCn3c(C)nc4cc(C(F)(F)F)ccc43)n2)cc1 | inactive: -0.21%
15 | O=C(Cn1c(C(F)(F)F)nc2ccccc21)N1CCCC1 | inactive: 8.67%
16 | Cc1ccc(NC(=O)Cn2cnc3c(=O)n(C)c(=O)n(C)c32)c(C)c1 | inactive: -0.24%
17 | CCC(=O)Nc1cccc(C(=O)/C=C/c2ccc(F)cc2)c1 | inactive: 3.98%
18 | Cc1ccsc1/C=N/NC(=O)Cn1cnc2ccccc21 | inactive: 5.76%
19 | ClCCSc1nnc(-c2cccnc2)o1 | inactive: 14.1%
20 | Cc1nc2ccccc2n1CC(=O)NCCN1CCCC1 | inactive: 13%
21 | CC1(C)c2ccccc2N2CCC(=O)NC21/C=C/c1ccco1 (stereo not given) | inactive: 7.93%
22 | CCOC(=O)CC[C@H](NC(=O)Cn1cnc2c(NCc3ccccc3)ncnc21)C(=O)OCC | inactive: 13.9%
23 | COc1ccccc1NC(=O)N1CCn2c(nc3ccccc32)C1 | inactive: -5.97%

Row | SMILES | inhibition
24 | CCC(=O)Nc1nc2ccccc2n1CCN(CC)CC | inactive: -5.64%
25 | N=c1n(CCN2CCCCC2)c2ccccc2n1CC(=O)c1cccc([N+](=O)[O-])c1 | inactive: -29.3%
26 | Cc1ccc2c(c1)C1CN(C)CCC1N2C(=O)CCCN1C(=O)c2cccc3cccc(c23)C1=O (stereo not given) | inactive: 9.48%
27 | CC(C)NC(=O)Cn1c(SCC(=O)c2ccc(F)cc2)nc2ccccc21 | inactive: 3.95%
28 | Cc1cc(C)c(CN2CCN(C(=O)Cn3cnc4c(NCc5ccccc5)ncnc43)CC2)c(C)c1 | inactive: -25.6%
29 | Cn1c(=O)c2c(ncn2CC(=O)N2CCN(c3cccc(Cl)c3)CC2)n(C)c1=O | inactive: 2.21%
30 | COC(=O)C1(C)COP(=O)(N2CCCCCC2)OC1 (stereo not given) | inactive: 0.92%
31 | CCC(C(=O)NC1CCCCC1)n1c(SCc2ccccc2F)nc2ccncc21 (stereo not given) | inactive: 11.4%
32 | CC(C)c1ccc(OP(=O)(Nc2ccccn2)Oc2ccccc2F)cc1 (stereo not given) | inactive: -2.87%
33 | c1csc(CNc2nc3ccccc3n2CCN2CCOCC2)c1 | inactive: 15.4%
34 | COC(=O)c1ccc(CNC(=O)Cn2cnc3c(SC)nc(N)nc32)cc1 | inactive: 19.1%
35 | Cc1nc2ccccc2n1C1CCN(Cc2nnnn2CCc2ccccc2)CC1 | inactive: -1.21%
36 | Oc1ccccc1CNc1nc2ccccc2n1CCN1CCCCC1 | inactive: -1.82%
37 | CC1c2nc3ccccc3n2C(CC(=O)NCc2ccccn2)C(=O)N1Cc1ccccc1 (stereo not given) | inactive: 10.7%
38 | O=C(Nc1nc2ccccc2n1CCN1CCCC1)c1ccc(Cl)cc1 | inactive: -17.3%
39 | CC(=O)Nc1ccc(C(=O)CSc2nc3ccccc3n2CC(=O)N2CCCC2)cc1 | inactive: 8.44%
40 | CC(C)[C@H](NC(=O)N1CCn2c1nc1ccccc12)C(=O)NC1CCCCC1 | inactive: 19.2%
41 | CCN(CC)CCNC(=S)N1CCn2c(nc3ccccc32)C1 | inactive: 12.6%
42 | Nc1ncnc2c1ncn2CCN1CCOCC1 | inactive: 15.5%
43 | Cc1ccc2c(c1)C1CN(C)CCC1N2C(=O)COc1ccc(N(C)C(=O)C(C)(C)C)cc1 (stereo not given) | inactive: 7.57%
44 | Cc1ccc2c(c1)C1CN(C)CCC1N2C(=O)c1cccs1 (stereo not given) | inactive: 6.93%
45 | COc1ccc(/C=N/c2nc3ccccc3n2CCN2CCCCC2)cc1OC | inactive: 6%
46 | Cc1cc(SC(NC(=O)c2ccccc2)C(Cl)(Cl)Cl)nc(C(C)C)n1 (stereo not given) | inactive: -1.05%

Row | SMILES | inhibition
47 | CC(=O)Nc1ccc(NC(=O)Cn2c(CC(=O)N3CCCC3)nc3ccccc32)cc1 | inactive: 10.8%
48 | Cc1ccc(-c2csc(N3CCC[C@@H]3C(=O)NCCn3c(C(F)(F)F)nc4ccccc43)n2)cc1 | inactive: -11%
49 | CCCNC(=O)CC1C(=O)N(Cc2ccccc2)C(C)c2nc3ccccc3n21 (stereo not given) | inactive: -3.95%
50 | CCCN(C(=O)Cn1c(C(F)(F)F)nc2ccccc21)C1CCS(=O)(=O)C1 (stereo not given) | inactive: 6.1%
51 | CC(C)[C@H](NC(=O)N1CCn2c1nc1ccccc12)C(=O)N1CCCCC1 | inactive: 1.86%
52 | CSc1nc(N)nc2c1ncn2CC(=O)NCc1ccccc1 | inactive: 1.52%
53 | COc1ccc(S(=O)(=O)N2CCn3c2nc2ccccc23)cc1 | inactive: -2.37%
54 | Nc1ncnc2c1ncn2CCNCCc1ccccc1 | inactive: 11.6%
55 | O=C(Cn1c(C(F)(F)F)nc2ccccc21)NCCCN1CCOCC1 | inactive: 14.4%
56 | Cc1ccc2c(c1)C1CN(C)CCC1N2C(=O)COc1ccccc1F (stereo not given) | inactive: 3.61%
57 | Cc1ccc(S(=O)(=O)c2nc(-c3ccccc3Cl)oc2N(C)C2CCN(C)CC2)cc1 | inactive: -3.48%
58 | CCOC(=O)Nc1ccc([As](=O)(O)O)c(O)c1 | inactive: 7.33%
59 | Cc1cc(C)cc(N(CC(=O)N2CCn3c2nc2ccccc23)S(=O)(=O)c2c(C)noc2C)c1 | inactive: 9.09%
60 | CC(C)C[C@H](NC(=O)N1CCn2c1nc1ccccc12)C(=O)NCCc1ccccc1 | inactive: 6.61%
61 | CCCCC(=O)Nc1nnc(/C=C/c2ccc(OC)cc2)s1 | inactive: -11.2%
62 | Cc1ccc(N(CC(=O)N2CCn3c2nc2ccccc23)S(=O)(=O)c2c(C)n[nH]c2C)cc1 | inactive: 7.49%
63 | C[C@H](O)[C@@H]1C(=O)N2CCc3ccc(N4CCN(C)CC4)cc3[C@@H]2C[C@@H]1N(C)C(=O)NC1CCCCC1 | inactive: 2.06%
64 | CC1CCNP(=O)(N(CCCl)CCCl)O1 (stereo not given) | inactive: 10.4%
65 | COCC(=O)N(C)[C@H]1C[C@H]2c3cc(-c4ccccc4)ccc3CCN2C(=O)[C@H]1[C@H](C)O | inactive: 12.1%
66 | Cn1c(=O)c2c(ncn2CC(=O)N/N=C/c2ccc(Br)s2)n(C)c1=O | inactive: 4.13%
67 | COC(=O)c1ccccc1NC(=O)Cn1cnc2c1c(=O)n(C)c(=O)n2C | inactive: 7.6%
68 | Cn1c(=O)n(Cc2ccccc2)c(=O)c2c1nc1n2CCN1Cc1ccco1 | inactive: 16.5%
69 | CCc1nc2ccccc2n1CC(=O)N1CCN(S(=O)(=O)c2cccc(C(F)(F)F)c2)CC1 | inactive: 3.95%

Row | SMILES | inhibition
70 | O=P(Nc1ccccn1)(c1cccc2ccccc12)c1cccc2ccccc12 | inactive: 7.94%
71 | COc1ccccc1C(=O)OCCNC(=O)Cn1cnc2c1c(=O)n(C)c(=O)n2C | inactive: 2.96%
72 | Cc1cc(SC(NC=O)C(Cl)(Cl)Cl)ncn1 (stereo not given) | inactive: 12.9%
73 | CC(C)(C)NC(=O)Cn1c(SCC(=O)NC2CCCCC2)nc2ccccc21 | inactive: 13.9%
74 | CCCNC(=O)Cn1c(=O)n(C)c2ccccc21 | inactive: 2.96%
75 | CCNC(=S)N1CCn2c(nc3ccccc32)C1 | inactive: 3.44%
76 | CC1CN(Cc2nc3c(c(=O)n(C)c(=O)n3C)n2CCN2CCOCC2)CC(C)O1 (stereo not given) | inactive: 15%
77 | O=C(Cn1c(CCCO)nc2ccccc21)Nc1ccccc1-c1ccccc1 | inactive: 10.6%
78 | C/C(=N\NC(=O)Cn1c(C)nc2ccccc21)c1cccs1 | inactive: 22.4%
79 | O=[N+]([O-])c1ccc(Nc2ccc(Oc3ccc([N+](=O)[O-])cc3[N+](=O)[O-])cc2)c([N+](=O)[O-])c1 | inactive: 13.1%
80 | O=C(Cn1c(CC(=O)N2CCOCC2)nc2ccccc21)Nc1ccc2c(c1)OC(F)(F)O2 | inactive: 10.4%
81 | O=C(Cn1cnc2c(OCc3ccccc3)ncnc21)NCCCc1ccccc1 | inactive: 7.69%
82 | CCC(=O)Nc1nnc(/C=C/c2ccccc2)s1 | inactive: -6.95%
83 | COCCN1CCn2c(nc3cc(NC(=O)c4ccc(OC)cc4)ccc32)C1 | inactive: -8.01%
84 | CCS(=O)(=O)c1nc2ccccc2n1CC(=O)N1CCOCC1 | inactive: 12.9%
85 | CCC(C)c1ccc2oc(-c3ccc(NC(=O)Cn4cnc5c(=O)n(C)c(=O)n(C)c54)cc3)nc2c1 (stereo not given) | inactive: 8.08%
86 | CCC[n+]1cn(/C(C(=S)Nc2cccc(Cl)c2C)=C(/[O-])c2ccc(OC)c(OC)c2)c2ccccc21 | inactive: 27.9%
87 | Cn1c(=O)c2c(ncn2CC(=O)N2CCc3ccccc3C2)n(C)c1=O | inactive: 13.1%
88 | Cc1ccc2c(c1)[C@@H]1CN(C)CC[C@@H]1N2S(=O)(=O)c1ccc([N+](=O)[O-])cc1 | inactive: -24.5%
89 | O=C(CCCCCNC(=O)N1CCn2c1nc1ccccc12)NCCc1ccccc1 | inactive: 19.3%
90 | COc1ccc(OCC(=O)N2c3ccc(C)cc3C3CN(C)CCC32)cc1 (stereo not given) | inactive: -1.21%
